The text below walks through data of patent US10759795B2, “Aza-A-ring indenoisoquinoline topoisomerase I poisons” (Purdue Research Foundation, priority 2016, dated 2020).

The target of one test is T1, recombinant human TDP2 (Homo sapiens, UniProt O95551).
T1 sequence (O95551 1-362): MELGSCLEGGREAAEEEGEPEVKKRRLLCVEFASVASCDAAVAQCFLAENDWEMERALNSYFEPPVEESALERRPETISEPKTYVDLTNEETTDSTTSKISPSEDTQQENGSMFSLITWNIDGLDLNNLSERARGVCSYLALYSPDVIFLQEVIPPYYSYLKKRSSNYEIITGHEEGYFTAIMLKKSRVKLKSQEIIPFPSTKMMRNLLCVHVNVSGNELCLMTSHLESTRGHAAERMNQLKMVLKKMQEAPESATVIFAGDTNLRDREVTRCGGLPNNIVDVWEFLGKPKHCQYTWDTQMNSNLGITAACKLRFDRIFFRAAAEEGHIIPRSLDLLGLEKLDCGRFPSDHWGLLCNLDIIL
The test can be described thus: Recombinant TDP2 assay. It is filed as biochemical. Particulars: recombinant human TDP2, gel-based; read-out: TDP2: IC50 values for the inhibition of TDP2. As for the experimental part:
TDP2 reactions were carried out as described previously with the following modifications (Gao, R., et al., J. Biol. Chem. 2012, 287, 30842-30852). The 19-mer single-stranded oligonucleotide DNA substrate containing a 5′-phosphotyrosine (Y19, α^32P-cordycepin-3′-labeled) was incubated at 1 nM with 25 pM recombinant human TDP2 in the absence or presence of inhibitor for 15 min at room temperature in the LMP2 assay buffer containing 50 mM Tris-HCl, pH 7.5, 80 mM KCl, 5 mM MgCl2, 0.1 mM EDTA, 1 mM DTT, 40 μg/mL BSA, and 0.01% Tween 20. Reactions were terminated and treated similarly to recombinant TDP1 reactions.
TDP2, as opposed to TDP1, cleaves the phosphotyrosyl linkage in 5′-phosphotyrosyl-DNA oligonucleotides.

For test [1], the system named is 60 human cancer cell lines. The test can be described thus: NCI-60 single-dose cytotoxicity assay. The format is cell-based. Particulars: mean-graph midpoint of percent growth of 60 human cancer cell lines, 10 μM drug, 48 h, relative to no-drug control and time zero. As for the experimental part:
The new indenoisoquinolines were evaluated for cancer cell growth inhibitory activities. The National Cancer Institute's NCI-60 cytotoxicity assay measures the ability of test agents to inhibit the growth of approximately 60 different cancer cell lines. In the initial single-dose assay, cells are treated with a 10 μM dose of test agent. The growth of treated cells versus untreated cells is then compared. If a test agent induces a sufficiently low mean growth percent, it is promoted to five-dose testing to determine a mean graph midpoint (MGM) GI50 value. In five-dose testing, cells are treated with test agent concentrations ranging from 10^−8 to 10^−4 M. The concentration required to achieve 50% growth inhibition in a particular cell line is calculated. In situations in which this value is greater than 100 μM or less than 0.01 μM, it is recorded as 100 μM and 0.01 μM, respectively. The values for each of the tested cell lines are averaged to obtain a mean graph midpoint (MGM) GI50 value. MGM GI50 values are often, but not always, determined from two separate rounds (Table 1).

By IC50 is commonly meant the concentration needed to halve the response being measured.

Turning to `CN(C)CCCn1c2c(c3ccncc3c1=O)C(=O)c1ccccc1-2` [Compound 46, 3-Aza-5,6-dihydro-6-(3-(dimethylamino)propyl)-5,11-dioxo-11H-indeno[1,2-c]isoquinoline], the 50% inhibitory concentration (IC50) at recombinant human TDP2 came out at 80 µM. In addition, the “Mean Growth %” value in test [1] is reported as −9.25%.
